The record followed here is US20200392251A1.

Sequences of proteins named here, by UniProt entry; tags and fusion partners are left off. A line that says so, or that is headed by a name, gives the form on record, which may keep a tag or linker. Residues count along the entry.
UniProt P56817, 46-457 limits assumed, form in doubt: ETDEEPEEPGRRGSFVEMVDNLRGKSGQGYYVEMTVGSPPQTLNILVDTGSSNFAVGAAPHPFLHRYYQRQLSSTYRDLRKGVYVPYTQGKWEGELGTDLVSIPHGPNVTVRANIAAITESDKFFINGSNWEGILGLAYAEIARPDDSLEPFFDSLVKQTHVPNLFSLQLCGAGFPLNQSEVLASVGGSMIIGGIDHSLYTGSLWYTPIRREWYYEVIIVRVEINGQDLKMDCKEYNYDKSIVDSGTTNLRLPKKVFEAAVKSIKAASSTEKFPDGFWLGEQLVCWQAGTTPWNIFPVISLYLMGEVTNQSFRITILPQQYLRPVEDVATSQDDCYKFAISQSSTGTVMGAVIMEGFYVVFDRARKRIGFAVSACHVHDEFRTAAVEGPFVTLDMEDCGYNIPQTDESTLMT

The target of experiment [1] is human β-secretase 1 (BACE1), extracellular/catalytic domain (human) (UniProt P56817). Briefly: FRET peptide inhibition assay; KI=IC50/(S/Km+1).
Experiment [2] has the same target. Briefly: biolayer interferometry; biotinylated protease on streptavidin sensor, Fab in solution. Background: In BLI a coated tip is dipped into the sample, and binding shifts an interference pattern.

B1: anti-BACE1 IgG B3B12 (antibody, V domains shown)
VH: EVQLVESGGGLVQPGGSLRLSCAASGFNIPYSSMHWVRQAPGKGLEWVASISSYSSSTSYADSVKGRFTISADTSKNTAYLQMNSLRAEDTAVYYCARYICGHRWRDFDMWRARTGVNYAMDYWGQGTLVTVSS
VL: DIQMTQSPSSLSASVGDRVTITCRASQSVGTYLNWYQQKPGKAPKLLIYATSNLRSGVPSRFSGSGSGTDFTLTISSLQPEDFATYYCQQSYSIPRFTFGPGTKLEIKR
One may read the Ki as the dissociation constant of the complex between target and ligand, obtained from inhibition or displacement. A low value points to tighter binding. In experiment [1], B1 displayed a Ki of 13 nM.

B2: anti-BACE1 Fab B2B9 (Fab, V domains shown)
VH: EVQLVESGGGLVQPGGSLRLSCAASGFNISYSSMHWVRQAPGKGLEWVASIYPSYSYTSYADSVKGRFTISADTSKNTAYLQMNSLRAEDTAVYYCARSSSSYYYGMDYWGQGTLVTVSS
VL: DIQMTQSPSSLSASVGDRVTITCRASQSVSSAVAWYQQKPGKAPKLLIYSASSLYSGVPSRFSGSRSGTDFTLTISSLQPEDFATYYCQQSSYSLITFGQGTKVEIKR
Usually Kd stands for the constant that tells how readily two partners part at equilibrium. A lower Kd goes with a tighter complex. Take B2: the dissociation constant (Kd) in experiment [2] was determined as 110 nM.
